Reference: US11401376B2, “Chemical compounds for coating of nanostructures” (Spago Nanomedical AB, priority 2017, dated 2022)
“Also recorded” adds a separate entry of the source.

Experiments:
[1] = Solubility of the coated nanostructure product (Example 14)
[2] = Heat treatment, loss of coating (Example 17); assay type: physicochemical; conditions: coated nanostructures, 80° C. for 30 minutes, washed on 10 kDa filter, Si/P ratio by ICP-OES
Method: The sample was moved to a 20 mL flask and degassed by three N2-vacuum cycles and was then kept under N2. The sample was heated in a silicon oil bath at 80° C. for 30 minutes and was then cooled to ambient room temperature. A reference aliquot was withdrawn (A). The remaining sample was washed with four times with milliQ water on a 10 kDa Vivaspin 6 centrifugation filter (Sartorious). A reference aliquot (B) was withdrawn from the retentate. Reference aliquots A, and B were analyzed with ICP-OES.

[3] = Calcium induced aggregation of the coated nanostructures (Example 15); assay type: physicochemical; conditions: for Ca resistance: coated nanostructures, 0-8 mM CaCl2, 10 mM Tris-HCl 150 mM NaCl pH 7.4, 1 h room temperature
Method: Volumes of nanostructure were added to 1 ml aliquots of 10 mM Tris-HCl 150 mM NaCl pH 7.4 containing 0, 0.5, 1, 2, 4 and 8 mM CaCl2) in microcentrifuge tubes so that the final concentration of phosphorus was 0.5 mM. The samples were vortexed, incubated at room temperature for 1 h and centrifuged for 10 min at 12000×g. The supernatants (700 μl) were removed and analyzed by ICP for phosphorus concentrations. The phosphorus concentrations were normalized to the concentration in corresponding samples without CaCl2) and plotted as ‘% remaining in solution’ against the concentration of CaCl2) in the reaction mixture. When 90% or more remains in solution the material is considered robust against calcium induced aggregation.

[4] = Stability of coated nanostructures on manganese loading / process conditions (GFC, Example 18); assay type: physicochemical
Method: 200 ml of the crude solution of coated nanostructures of Example 13b was added a solution of 0.256 g MnCl2.4H2O dissolved in 2.56 ml ethylene glycol. The pH was adjusted to 4.07 with 1 M NaOH. The manganese solution was added to the reaction. An aliquot A was taken out. The reaction was heated at 100° C. for 25 h 30 min after which the temperature descended to ambient room temperature. An aliquot B was withdrawn.

[5] = statement in text referring to example 14

| Substance | Loss of coating [2] [%] | Ca resistance [3] | further results |
| --- | --- | --- | --- |
| 1,3-bis[ω-methyl-(ethyleneoxy)12-20methyl]-4,6-bis[(prop-3-triethoxysilyl-1-yl)oxy]benzene [Compound 20] |  |  | solubility of the coated nanostructures [1, 5]: form gels |
| 1-[ω-methyl-(ethyleneoxy)12-20 methyl]-3,5-bis(eth-2-triethoxysilyl-1-yl)benzene [Compound 33] | 0 |  |  |
| 1-[ω-methyl-(ethyleneoxy)12-20 methyl]-3,5-bis(prop-3-triethoxysilyl-1-yl)benzene [Compound 38] | 1 |  | Soluble product ([1]; nanostructures coated with the coating precursor, ethyleneglycol/water, heated 20 h): partial |
| 1-[ω-methyl-(ethyleneoxy)12-20 methyl]-3,5-bis[(but-4-triethoxysilyl-1-yl)oxy]benzene [Compound 26] | 0 |  |  |
| 1-[ω-methyl-(ethyleneoxy)12-20 methyl]-3,5-bis[(prop-3-triethoxysilyl-1-yl)oxy]benzene [Compound 6] | 0 | Y (When 90% or more remains in solution the material is considered robust against calcium induced aggregation) | calcium ion induced aggregation [3, 5]: prevent calcium ion induced aggregation; stability of coated nanostructures under the coating / process conditions [4]: robust; also recorded: good result |
| 4-[ω-methyl-(ethyleneoxy)12-20]hepta-1,6-diene [Compound 43] |  | Y (When 90% or more remains in solution the material is considered robust against calcium induced aggregation) |  |
| 5,5′-bis[ω-methyl-(ethyleneoxy)12-20 methyl]-3,3′-bis[(prop-3-triethoxysilyl-1-yl)oxy]-1,1′-biphenyl [Compound 14] | 0 | Y (When 90% or more remains in solution the material is considered robust against calcium induced aggregation) |  |
